From US20070010428A1, “Inhibitors of signal transduction and activator of transcription 3” (priority 2004, published 2007)

System: SH2 domain of Stat3
Assay: IC50 FP (nM)
Text: Table printed on a drawing sheet, FIGURE 14a
Head of the field: IC50 FP (nM)
The patent's description of the figure: FIGS. 14A-E is a series of small molecule peptidomimetics (compounds 5-19) along with IC50 values from an in vitro fluorescence polarization assay.
First copying reader's note: The column headed 'Structure' holds only drawn chemical structures (left empty here); the written peptidomimetic sequence stands in an unheaded column to its left.
Where the first naming reader finds the target: passage: The small peptidomimetics were assayed for their ability to bind to the SH2 domain of Stat3 using fluoresence polarization.

CC(=O)N[C@@H](Cc1ccc(OP(=O)(O)O)cc1)C(=O)N[C@@H](CC(C)C)C(=O)N1CCC[C@H]1C(=O)N[C@@H](CCC(N)=O)C(=O)N[C@H](C(=O)N[C@H](C(N)=O)C(C)C)[C@@H](C)O [Peptide 1, Ac-pTyr-Leu-Pro-Gln-Thr-Val-NH2]
IC50: 220 nM
